Values quoted from earlier work as cited in paper PMC3877047, “Milligram Quantities of Homogeneous Recombinant Full-Length Mouse Munc18c from Escherichia coli Cultures” (PLoS ONE, 2013).
pKd: −log10 of the molar value.

Chains of the proteins cited; added tags and fusions are not shown. Lines headed by an entry give the natural chain unless they say otherwise; changes in a name come on top. Residues count along the entry.
UniProt P70452, 1-275: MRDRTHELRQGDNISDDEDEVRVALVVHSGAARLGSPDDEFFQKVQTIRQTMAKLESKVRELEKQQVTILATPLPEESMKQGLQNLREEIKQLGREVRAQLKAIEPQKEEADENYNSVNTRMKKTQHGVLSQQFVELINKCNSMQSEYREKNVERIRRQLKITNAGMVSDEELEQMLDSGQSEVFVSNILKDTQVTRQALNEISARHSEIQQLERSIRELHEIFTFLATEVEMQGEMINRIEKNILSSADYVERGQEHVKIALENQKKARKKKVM
UniProt Q60770: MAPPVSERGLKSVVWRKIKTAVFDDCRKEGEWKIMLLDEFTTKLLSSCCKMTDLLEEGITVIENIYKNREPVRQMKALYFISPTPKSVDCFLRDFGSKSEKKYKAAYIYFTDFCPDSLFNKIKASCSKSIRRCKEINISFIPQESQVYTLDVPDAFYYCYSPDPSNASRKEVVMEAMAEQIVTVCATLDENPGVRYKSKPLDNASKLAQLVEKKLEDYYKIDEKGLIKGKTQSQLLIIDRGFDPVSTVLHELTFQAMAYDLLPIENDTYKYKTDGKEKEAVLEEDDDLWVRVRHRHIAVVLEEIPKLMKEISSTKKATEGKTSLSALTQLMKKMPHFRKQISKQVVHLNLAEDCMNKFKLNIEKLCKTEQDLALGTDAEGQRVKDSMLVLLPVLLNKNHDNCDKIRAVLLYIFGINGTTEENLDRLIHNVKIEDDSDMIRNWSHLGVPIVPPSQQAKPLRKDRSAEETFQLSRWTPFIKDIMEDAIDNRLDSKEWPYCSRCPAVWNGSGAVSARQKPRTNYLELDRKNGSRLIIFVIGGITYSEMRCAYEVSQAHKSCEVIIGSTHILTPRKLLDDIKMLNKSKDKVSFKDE

Target: Syntaxin 4 1-275 (Mus musculus) (UniProt P70452)
Test: ITC
Settings: cited from earlier work

For Munc18c (from UniProt Q60770), the pKd is given as 7.02.
